Experimental data as given in US6635771B2, “N-benzhydryl indole compounds” (Wyeth, priority 2001, dated 2003).

Biological target: T1, cPLA2 (Homo sapiens, UniProt P47712)
T1 sequence (P47712 1-749): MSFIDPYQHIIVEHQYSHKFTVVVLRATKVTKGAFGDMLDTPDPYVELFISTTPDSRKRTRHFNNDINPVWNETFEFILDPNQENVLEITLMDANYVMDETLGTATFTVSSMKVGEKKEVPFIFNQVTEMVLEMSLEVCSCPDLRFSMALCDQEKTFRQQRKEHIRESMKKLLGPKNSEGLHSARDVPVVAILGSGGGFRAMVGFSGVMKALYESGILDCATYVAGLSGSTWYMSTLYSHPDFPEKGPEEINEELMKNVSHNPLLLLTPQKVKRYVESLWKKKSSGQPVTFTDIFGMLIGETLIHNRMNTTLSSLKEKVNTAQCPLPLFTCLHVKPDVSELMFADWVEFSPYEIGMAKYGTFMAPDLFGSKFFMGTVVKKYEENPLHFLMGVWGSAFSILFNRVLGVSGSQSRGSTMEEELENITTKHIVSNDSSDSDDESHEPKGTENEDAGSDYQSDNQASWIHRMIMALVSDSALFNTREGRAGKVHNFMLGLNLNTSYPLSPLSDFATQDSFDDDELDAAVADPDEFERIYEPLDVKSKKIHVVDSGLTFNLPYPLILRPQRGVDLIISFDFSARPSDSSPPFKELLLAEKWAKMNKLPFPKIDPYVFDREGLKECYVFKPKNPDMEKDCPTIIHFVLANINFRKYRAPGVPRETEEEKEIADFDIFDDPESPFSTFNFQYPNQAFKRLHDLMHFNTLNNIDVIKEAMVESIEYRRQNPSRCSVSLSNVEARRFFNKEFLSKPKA
Assay: Coumarine Assay
Assay type: biochemical
Settings: 60 μM 7-hydroxycoumarinyl 6-heptenoate substrate, 4 μg cPLA2, pH 7.5, fluorescence ex 360 nm / em 460 nm; read-out: Coumarin IC50

| pIC50 | SMILES |
| --- | --- |
| 6.24 | O=C(O)c1ccc(OCCc2c(CCNS(=O)(=O)Cc3ccc(Cl)c(Cl)c3)n(C(c3ccccc3)c3ccccc3)c3ccc(Cl)cc23)cc1 [Example 10, 4-{2-[1-Benzhydryl-5-chloro-2-(2-{[(3,4-dichlorobenzyl)sulfonyl]amino}-ethyl)-1H-indol-3-yl]ethoxy}benzoic acid] |
| 6.35 | O=C(O)c1ccc(OCCc2c(CCNS(=O)(=O)Cc3cc(Cl)cc(Cl)c3)n(C(c3ccccc3)c3ccccc3)c3ccc(Cl)cc23)cc1 [Example 11, 4-{2-[1-Benzhydryl-5-chloro-2-(2-{[(3,5-dichlorobenzyl)sulfonyl]amino}-ethyl)-1H-indol-3-yl]ethoxy}benzoic acid] |
| 6.20 | O=C(O)c1ccc(OCCc2c(CCNS(=O)(=O)Cc3ccc(Cl)cc3)n(C(c3ccccc3)c3ccccc3)c3ccc(Cl)cc23)cc1 [Example 15, 4-{2-[1-Benzhydryl-5-chloro-2-(2-{[(4-chlorobenzyl)sulfonyl]amino}-ethyl)-1H-indol-3-yl]ethoxy}benzoic acid] |
| 5.33 | CS(=O)(=O)NCCc1c(CCOc2ccc(C(=O)O)cc2)c2cc(Cl)ccc2n1C(c1ccccc1)c1ccccc1 [Example 45, 4-[2-(1-benzhydryl-5-chloro-2-(2-[(methylsulfonyl)amino]ethyl)-1H-indol-3-yl]ethoxy}benzoic acid] |
| 5.32 | O=C(O)c1ccc(OCCc2c(CCNS(=O)(=O)c3ccccc3)n(C(c3ccccc3)c3ccccc3)c3ccc(Cl)cc23)cc1 [Example 46, 4-[2-(1-benzhydryl-5-chloro-2-{2-[(phenylsulfonyl)amino]ethyl}-1H-indol-3-yl]ethoxy}benzoic acid] |
| 6.19 | O=C(O)c1ccc(OCCc2c(CCNS(=O)(=O)Cc3ccccc3)n(C(c3ccccc3)c3ccccc3)c3cc(Cl)ccc23)cc1 [Example 105, 4-{2-[1-Benzhydryl-6-chloro-2-(2-phenylmethanesulfonylamino-ethyl)-1H-indol-3-yl]-ethoxy}-benzoic acid] |

pIC50: −log10 of the molar value.
